Test: Solubility in water

solubility: at least 2 mg/ml
Substance: 2′-B-alanyl taxol formate [TF.Pac]

From US11052157B2 (priority 2014, dated 2021)
